Measured affinities in a library of Ab-14 light chain variants

Data: MIT Lincoln Laboratory AlphaSeq set, Li et al. 2023, doi:10.1038/s41467-023-39022-2, as distributed in FLAb.

Target: peptide PDVDLGDISGINAS, taken from heptad repeat 2 (HR2) of SARS-CoV-2 spike.

Ab-14 is the parent antibody, in scFv form: VH, then three GGGGS repeats, then VL. The heavy chain is unchanged in all variants.
VH: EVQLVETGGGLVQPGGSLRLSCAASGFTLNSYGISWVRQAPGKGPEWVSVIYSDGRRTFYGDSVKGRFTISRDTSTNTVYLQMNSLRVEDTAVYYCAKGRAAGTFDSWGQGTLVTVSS
VL: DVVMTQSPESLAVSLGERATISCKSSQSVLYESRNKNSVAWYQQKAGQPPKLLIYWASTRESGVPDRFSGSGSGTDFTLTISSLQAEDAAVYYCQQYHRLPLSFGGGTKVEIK

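These sequences belong to a second round, designed from the earlier measurements on random variants of the parent. Their group label is 14L_En_Gen (En: ensemble of fine-tuned language models; Gen: genetic algorithm). Affinity was read by AlphaSeq, a pooled yeast mating assay with surface-displayed partners. Mating (16 h, 30 °C) was followed by selection of diploids and sequencing of their barcodes. Scores were corrected for input abundance and mapped to Kd with protein pairs of known affinity run in the same pool. Mating was done six times.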

Variants are written as CDR1, CDR2 and CDR3 of the light chain (limits as in the source). Parent: KSSQSVLYESRNKNSVA, WASTRES, QQYHRLPLS. Numbers give log10(Kd / nM), so 0 is 1 nM and 3 is 1 µM. Smaller is tighter. An entry "n.d." has no value in the source: the pair was not observed among the diploids in that replicate. This suggests poor binding but is not conclusive.

CDR-L1,CDR-L2,CDR-L3,"replicates, log10 nM",signal with controls
MISQLYNMGQFAINSVA,QASERYN,QQYDRLPLT,0.74 0.45 0.90 0.54 1.17 0.83,0/18
MVNQIMDHLSKQTNNVA,ETVTREE,QQYDRLPLS,n.d. n.d. n.d. n.d. n.d. n.d.,1/18 (1.65)
MISQLWNMGQFAINSVA,QASIRNE,QQYDRLPLM,0.84 0.52 1.30 0.78 1.06 1.16,1/18 (2.20)
MLSQMWAIGMKVSNSVA,QANMRFN,QQYDRLPLI,n.d. n.d. 3.11 1.70 1.83 1.88,2/18 (2.44)
KLVNFMNRGTHHTSNIA,DAANRID,QQYARLPLA,0.24 0.25 0.26 0.18 0.11 0.30,3/18 (3.42)
MLSQMTGLGMKASNSVA,QASMRFN,QQYHRLPLM,1.08 0.79 0.74 0.77 1.19 1.45,0/18
QIYQAMHTLSQMKNNVA,DVNERGQ,QQYYRLPLS,0.06 0.20 0.09 -0.02 -0.02 -0.02,2/18 (2.71)
KLSMVTGHMSMSRNNVA,EMVTREN,QQYDRLPLA,0.65 0.31 0.14 0.25 0.63 0.60,0/18
KLTSITGTEKVRGNNVA,EMETRES,QQYNRLPLS,0.47 0.15 0.43 0.39 0.12 0.27,0/18
MISQLYNMGSFAINSVA,QASQRNE,QQYDRLPLE,1.19 1.17 0.86 1.21 1.53 1.28,1/18 (3.68)
KISESMHFAQFNKQSIA,EVSVRSN,QSYNRLPLS,2.15 n.d. 1.77 n.d. 2.36 2.69,3/18 (3.27)
MISEMMHMIGARKNSIA,DLVLRAN,QQYHRLPLS,1.03 0.81 n.d. n.d. 2.06 1.34,1/18 (2.08)
KIGATLNTLMHQKNNVA,DLVEREN,QQYFRLPLS,0.55 0.18 0.43 0.63 0.50 0.50,1/18 (1.13)
TLYGLSNSMSINKNSVA,EMTTRYD,QQYDRLPLE,n.d. 2.32 1.84 1.92 2.57 2.54,0/18
MISQLINMGSFAINSVA,QASIRCN,QQYDRLPLA,n.d. n.d. n.d. n.d. n.d. n.d.,0/18
MMSQVTGLGTRHRNNVA,QTSTRED,QQYDRLPLI,0.76 0.70 0.52 0.47 0.51 0.91,4/18 (2.86)
MITQLMNMGQFAINSVA,QASIRNE,QQYDRLPLV,1.79 1.90 1.50 1.39 1.56 1.73,0/18
QIYQAMHTLMQTKDNVA,DVEERGS,QQYFRLPLS,n.d. 0.92 1.26 3.10 1.49 2.09,1/18 (2.13)
MISQLYNMGTFAINSVA,QASERCN,QQYDRLPLM,2.09 1.74 2.16 2.22 n.d. 2.22,0/18
HITYGMYVAGRHSKSIA,QAEERAK,QQYDRLPLI,0.50 0.48 0.67 0.84 0.95 0.64,0/18
MISQLYNMGQFAINSVA,QAELRNE,QQYDRLPLA,1.25 1.16 1.74 n.d. n.d. n.d.,0/18
IVSQLMIWGMHAKNSIA,EAETRLN,QQYERLPLF,n.d. n.d. n.d. n.d. n.d. n.d.,0/18
KLGYNTGTESFRKDNIA,DNDLRAR,QQYHRLPLS,1.17 0.78 0.71 0.54 0.59 0.73,0/18
KISQMVRVGSTVKNSIA,EEVTRAN,QQYHRLPLA,0.79 0.51 0.53 0.50 0.71 1.01,0/18
KIGMTLNQLMQKKNNVA,DLVTREE,QQYFRLPLS,0.83 0.51 0.46 0.31 0.30 0.26,0/18
TISQVMNILTRHGNNVA,DLEERED,QQYFRLPLS,0.30 0.67 -0.03 0.23 0.49 0.77,0/18
HLKQVLNGVNKKMNSVA,HMNTREQ,QQYDRLPLV,1.16 1.90 1.54 1.27 1.39 1.44,0/18
MLSMVADISSKNRNSVA,EMTTREK,QQYDRLPLI,n.d. n.d. n.d. -0.50 1.26 0.45,0/18
TIGMFMDNLMQNRNNVA,DTSTLGD,QSYDRLPLS,0.29 0.11 0.12 0.37 0.29 0.62,0/18
KIGMTLNTLMHQKNNVA,DLVTRED,QQYHRLPLS,0.99 0.48 0.42 0.69 0.42 0.61,1/18 (3.54)
TISQVMNTLTRHGNNVA,DLQNRES,QQYFRLPLS,0.74 0.41 0.27 -0.17 0.56 0.53,0/18
KIGLTLNTLLHQKNNVA,DLVTREN,QQYFRLPLS,0.27 n.d. 0.66 n.d. -0.15 n.d.,0/18
HMSMLTMMGSRHRNSVA,QMTTREN,QQYDRLPLA,2.95 n.d. n.d. 0.89 1.64 1.87,0/18
MLSQVMHMAGAKKNSIA,DLVMRAN,QQYHRLPLS,2.04 0.82 1.80 1.06 1.80 4.20,1/18 (1.78)
MMSQVTGMGTRHRNNVA,QTSMREP,QQYDRLPLV,0.69 0.42 0.36 0.51 0.46 0.56,2/18 (3.62)
KITATMRFEQKISNNIA,EVTLRSK,QQYYRLPLS,1.21 1.24 1.03 1.05 0.13 1.27,2/18 (1.82)
KISQMVRVGSTLSNSIA,EEVTRAK,QQYHRLPLA,1.09 1.15 0.60 1.07 0.80 0.79,0/18
MLSEVLHMLGVKKNSIA,DLVLRAN,QQYARLPLM,n.d. n.d. n.d. 2.42 n.d. n.d.,0/18

Again, the first 3 entries without any signal:

{"CDR-L1": "MVNQIMDHLSKQTNNVA", "CDR-L2": "ETVTREE", "CDR-L3": "QQYDRLPLS", "replicates, log10 nM": "n.d. n.d. n.d. n.d. n.d. n.d.", "signal with controls": "1/18 (1.65)"}
{"CDR-L1": "MISQLINMGSFAINSVA", "CDR-L2": "QASIRCN", "CDR-L3": "QQYDRLPLA", "replicates, log10 nM": "n.d. n.d. n.d. n.d. n.d. n.d.", "signal with controls": "0/18"}
{"CDR-L1": "IVSQLMIWGMHAKNSIA", "CDR-L2": "EAETRLN", "CDR-L3": "QQYERLPLF", "replicates, log10 nM": "n.d. n.d. n.d. n.d. n.d. n.d.", "signal with controls": "0/18"}

Values of this round are not directly comparable with the first-round values of the same sequences. The authors' rule: three or more of the six replicates give a measured affinity, fewer mean a poor binder. The parent sequence was in this pool as ten entries: three were never detected, three once, and four in most replicates, with averages from 0.34 to 2.37. As a blank, each scFv also met three strains without target: over all light chain designs, 4% of these pairings were detected, typically at 2.64 and seldom below 1.59. The control count says in how many pairings with the empty strains this scFv gave a signal, with their mean in brackets.